Test system: Mus musculus
Assay: Toxicity in sc dosed Kunming mouse assessed as sedation by rotarod test
Type: organism-based
Conditions: in vivo

Molecule `CN(C(=O)Cc1ccc(Cl)c(Cl)c1)C1CCCCC1N1CCCC1.CS(=O)(=O)O` (stereo unspecified) has an ED50 of 3.32 mg/kg.

— ChEMBL document CHEMBL3758122, “Multitarget opioid ligands in pain relief: New players in an old game” (Eur J Med Chem, 2016)
